Patent US20230364230A1, “COMBINATION THERAPY FOR CANCER” (ENGMAB SÀRL, priority 2020, published 2023)

Test system: NK cells
Assay: NK cell proliferation in DLBCL patient PBMCs stimulated with anti-CD3
Type: cell-based, human
Details: PBMCs treated 1 hour prior to anti-CD3 stimulation for 3 days
Description: Percentage of NK cells was analyzed via flow cytometry gated on live CD3-CD19-CD14-CD56+CD16+NK cells. Cytokinic NK cells were […]16^low and cytotoxic NK cells were CD56^lowCD16^high populations.

## Nc1cccc2c1CN(C1CCC(=O)NC1=O)C2=O (stereo not shown) [lenalidomide, 3-(7-amino-3-oxo-1H-isoindol-2-yl)piperidine-2,6-dione]
  NK cell proliferation in DLBCL patient samples: dose dependently enhanced
